# Test results reported in PubChem BioAssay (Tox21).
# The chains behind the UniProt entries cited, without tags or fusion partners. Where a name states a change or a piece, a line headed by the entry shows the natural chain unless it says otherwise.
# UniProt P03372, whole entry, looked up: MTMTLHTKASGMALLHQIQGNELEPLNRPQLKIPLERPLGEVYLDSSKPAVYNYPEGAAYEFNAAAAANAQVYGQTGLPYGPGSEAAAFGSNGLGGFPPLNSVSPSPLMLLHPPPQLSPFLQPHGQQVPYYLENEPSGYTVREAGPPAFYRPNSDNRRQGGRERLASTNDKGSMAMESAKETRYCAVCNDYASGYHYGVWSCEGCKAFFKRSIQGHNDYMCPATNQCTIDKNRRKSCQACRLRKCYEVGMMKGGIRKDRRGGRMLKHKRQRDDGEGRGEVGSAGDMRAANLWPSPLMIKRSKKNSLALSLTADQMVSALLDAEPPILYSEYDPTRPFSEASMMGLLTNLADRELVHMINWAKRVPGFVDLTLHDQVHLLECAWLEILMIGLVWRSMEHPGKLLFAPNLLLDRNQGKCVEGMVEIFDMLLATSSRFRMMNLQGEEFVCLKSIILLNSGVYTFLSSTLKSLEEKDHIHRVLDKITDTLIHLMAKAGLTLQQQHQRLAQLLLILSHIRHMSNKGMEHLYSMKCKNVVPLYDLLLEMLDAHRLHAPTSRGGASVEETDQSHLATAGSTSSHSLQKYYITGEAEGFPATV
# UniProt P16473, whole entry, looked up: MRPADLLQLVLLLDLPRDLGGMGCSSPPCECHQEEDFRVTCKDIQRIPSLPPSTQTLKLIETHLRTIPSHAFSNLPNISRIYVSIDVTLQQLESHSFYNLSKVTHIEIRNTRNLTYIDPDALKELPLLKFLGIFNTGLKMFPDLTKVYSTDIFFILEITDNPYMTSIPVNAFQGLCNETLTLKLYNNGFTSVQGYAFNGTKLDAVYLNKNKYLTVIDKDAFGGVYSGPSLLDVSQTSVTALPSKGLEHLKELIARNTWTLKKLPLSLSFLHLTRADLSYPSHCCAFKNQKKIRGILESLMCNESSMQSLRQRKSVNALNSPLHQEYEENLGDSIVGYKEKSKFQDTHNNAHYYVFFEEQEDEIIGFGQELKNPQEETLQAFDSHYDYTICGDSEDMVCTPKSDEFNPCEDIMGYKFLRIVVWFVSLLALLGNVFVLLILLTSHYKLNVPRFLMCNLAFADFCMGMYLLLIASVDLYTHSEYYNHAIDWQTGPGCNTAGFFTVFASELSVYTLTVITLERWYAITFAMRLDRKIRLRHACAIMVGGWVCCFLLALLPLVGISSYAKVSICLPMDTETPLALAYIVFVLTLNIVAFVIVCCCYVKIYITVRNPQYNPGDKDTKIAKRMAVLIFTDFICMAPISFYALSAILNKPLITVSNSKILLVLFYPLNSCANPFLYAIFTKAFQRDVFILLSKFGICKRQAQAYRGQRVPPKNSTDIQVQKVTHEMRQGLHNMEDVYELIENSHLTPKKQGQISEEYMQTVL
# UniProt P06401: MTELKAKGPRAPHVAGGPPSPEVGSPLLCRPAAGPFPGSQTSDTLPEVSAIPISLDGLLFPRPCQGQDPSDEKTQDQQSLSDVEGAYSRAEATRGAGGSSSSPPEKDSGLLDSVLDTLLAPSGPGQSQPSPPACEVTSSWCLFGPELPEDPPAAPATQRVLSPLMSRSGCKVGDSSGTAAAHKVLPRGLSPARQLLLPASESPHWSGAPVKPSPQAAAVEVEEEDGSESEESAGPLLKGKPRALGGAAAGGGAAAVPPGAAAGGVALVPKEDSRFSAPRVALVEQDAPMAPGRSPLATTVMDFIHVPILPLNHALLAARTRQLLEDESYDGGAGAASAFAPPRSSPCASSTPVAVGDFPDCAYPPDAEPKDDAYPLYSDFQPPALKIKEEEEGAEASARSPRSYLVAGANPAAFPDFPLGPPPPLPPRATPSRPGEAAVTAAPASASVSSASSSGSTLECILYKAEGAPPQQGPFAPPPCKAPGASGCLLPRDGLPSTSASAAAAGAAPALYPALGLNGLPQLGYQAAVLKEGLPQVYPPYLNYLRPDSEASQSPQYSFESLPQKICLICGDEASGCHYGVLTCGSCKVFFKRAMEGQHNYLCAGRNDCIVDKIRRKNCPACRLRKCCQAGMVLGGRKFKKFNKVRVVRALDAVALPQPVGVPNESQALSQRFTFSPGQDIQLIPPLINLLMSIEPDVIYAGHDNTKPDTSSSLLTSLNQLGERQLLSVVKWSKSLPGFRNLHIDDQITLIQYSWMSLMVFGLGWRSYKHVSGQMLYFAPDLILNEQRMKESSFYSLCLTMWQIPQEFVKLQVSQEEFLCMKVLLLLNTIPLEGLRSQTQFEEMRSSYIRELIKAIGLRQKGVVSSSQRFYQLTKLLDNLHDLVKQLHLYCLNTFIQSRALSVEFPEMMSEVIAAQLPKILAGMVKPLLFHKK
# UniProt P34981: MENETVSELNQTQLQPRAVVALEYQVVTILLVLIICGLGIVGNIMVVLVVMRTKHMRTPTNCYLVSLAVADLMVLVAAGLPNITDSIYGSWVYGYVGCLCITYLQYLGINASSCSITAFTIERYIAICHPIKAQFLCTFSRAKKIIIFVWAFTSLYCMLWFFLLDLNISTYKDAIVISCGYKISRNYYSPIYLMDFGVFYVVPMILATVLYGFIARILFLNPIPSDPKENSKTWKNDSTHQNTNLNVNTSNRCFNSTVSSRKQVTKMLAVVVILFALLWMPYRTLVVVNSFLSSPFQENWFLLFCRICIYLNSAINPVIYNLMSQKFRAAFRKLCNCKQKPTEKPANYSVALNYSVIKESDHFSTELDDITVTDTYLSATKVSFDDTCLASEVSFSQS
# UniProt O75469: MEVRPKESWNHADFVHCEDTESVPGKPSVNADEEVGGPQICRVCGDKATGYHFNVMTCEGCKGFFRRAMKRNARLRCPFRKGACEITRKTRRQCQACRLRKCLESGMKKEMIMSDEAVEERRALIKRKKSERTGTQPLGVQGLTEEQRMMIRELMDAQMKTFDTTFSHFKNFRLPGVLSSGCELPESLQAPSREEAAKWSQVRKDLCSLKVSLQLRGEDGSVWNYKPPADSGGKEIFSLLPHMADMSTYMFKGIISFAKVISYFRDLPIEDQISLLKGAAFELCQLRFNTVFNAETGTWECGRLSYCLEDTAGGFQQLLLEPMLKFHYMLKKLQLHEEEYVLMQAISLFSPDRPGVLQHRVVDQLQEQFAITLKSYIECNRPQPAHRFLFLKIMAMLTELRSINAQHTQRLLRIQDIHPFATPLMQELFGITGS
# UniProt P22303: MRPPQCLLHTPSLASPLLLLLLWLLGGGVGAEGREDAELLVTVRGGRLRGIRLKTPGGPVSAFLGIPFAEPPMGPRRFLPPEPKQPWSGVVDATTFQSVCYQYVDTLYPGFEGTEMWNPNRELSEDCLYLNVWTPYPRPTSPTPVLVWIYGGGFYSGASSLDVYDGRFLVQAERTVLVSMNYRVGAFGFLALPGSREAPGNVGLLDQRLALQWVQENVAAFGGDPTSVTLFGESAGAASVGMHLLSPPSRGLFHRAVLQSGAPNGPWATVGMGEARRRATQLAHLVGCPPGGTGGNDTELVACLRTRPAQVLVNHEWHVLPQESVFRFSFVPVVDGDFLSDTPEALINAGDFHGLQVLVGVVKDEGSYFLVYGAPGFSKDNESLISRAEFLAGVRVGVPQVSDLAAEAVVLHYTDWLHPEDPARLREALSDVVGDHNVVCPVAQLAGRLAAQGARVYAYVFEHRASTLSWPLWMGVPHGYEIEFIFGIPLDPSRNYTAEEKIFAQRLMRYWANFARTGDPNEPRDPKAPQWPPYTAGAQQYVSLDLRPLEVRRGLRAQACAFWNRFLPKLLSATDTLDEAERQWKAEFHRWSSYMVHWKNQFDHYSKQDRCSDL
# UniProt P10635, whole entry, looked up: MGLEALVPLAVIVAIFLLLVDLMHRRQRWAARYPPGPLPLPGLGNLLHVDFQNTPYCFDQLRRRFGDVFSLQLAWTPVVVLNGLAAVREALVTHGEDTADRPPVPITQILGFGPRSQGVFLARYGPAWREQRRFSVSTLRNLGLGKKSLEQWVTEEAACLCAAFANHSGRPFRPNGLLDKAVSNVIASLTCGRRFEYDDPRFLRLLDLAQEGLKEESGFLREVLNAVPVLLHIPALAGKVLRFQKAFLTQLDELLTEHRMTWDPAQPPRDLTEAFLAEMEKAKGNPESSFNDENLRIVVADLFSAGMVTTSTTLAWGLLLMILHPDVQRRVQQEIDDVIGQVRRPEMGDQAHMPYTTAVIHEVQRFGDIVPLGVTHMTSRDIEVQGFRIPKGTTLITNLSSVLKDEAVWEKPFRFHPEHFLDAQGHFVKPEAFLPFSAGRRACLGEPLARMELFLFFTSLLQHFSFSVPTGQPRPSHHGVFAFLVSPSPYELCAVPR
# UniProt P10275: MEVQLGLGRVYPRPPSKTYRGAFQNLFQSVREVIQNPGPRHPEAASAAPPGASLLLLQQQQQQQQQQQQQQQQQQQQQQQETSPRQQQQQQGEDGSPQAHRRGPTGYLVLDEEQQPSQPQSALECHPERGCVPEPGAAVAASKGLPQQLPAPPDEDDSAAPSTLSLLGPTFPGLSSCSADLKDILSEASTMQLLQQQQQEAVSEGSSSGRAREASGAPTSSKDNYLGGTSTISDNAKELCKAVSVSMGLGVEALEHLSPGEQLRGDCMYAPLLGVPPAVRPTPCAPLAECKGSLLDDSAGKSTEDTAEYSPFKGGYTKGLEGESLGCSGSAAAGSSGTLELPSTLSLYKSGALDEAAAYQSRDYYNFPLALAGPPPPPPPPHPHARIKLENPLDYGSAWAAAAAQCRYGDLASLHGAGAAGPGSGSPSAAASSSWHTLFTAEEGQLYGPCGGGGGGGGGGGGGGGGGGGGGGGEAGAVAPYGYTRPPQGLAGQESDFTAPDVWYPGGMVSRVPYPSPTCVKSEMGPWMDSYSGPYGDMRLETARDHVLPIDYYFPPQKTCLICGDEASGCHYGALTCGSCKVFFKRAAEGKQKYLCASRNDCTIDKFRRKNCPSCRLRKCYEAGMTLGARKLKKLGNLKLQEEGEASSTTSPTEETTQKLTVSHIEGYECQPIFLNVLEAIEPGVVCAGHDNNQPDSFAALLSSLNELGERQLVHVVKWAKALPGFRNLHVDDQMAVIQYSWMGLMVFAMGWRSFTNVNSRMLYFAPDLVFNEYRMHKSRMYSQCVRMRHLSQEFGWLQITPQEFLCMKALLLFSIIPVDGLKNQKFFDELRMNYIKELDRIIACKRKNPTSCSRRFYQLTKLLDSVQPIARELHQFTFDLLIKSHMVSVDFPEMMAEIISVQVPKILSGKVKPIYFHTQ
# The entries are a selection whose mix differs from that of the whole data set. Records with an inconclusive call do not appear. Activity calls are given as the source filed them. Unless noted, calls follow the shape of the dose curve; as a rule, active = well fitted curve in the direction sought with a large enough effect in the repeat runs; inconclusive = weak or mixed curves; inactive = no such curve, though single readings can be large; an effect the other way counts as inactive or inconclusive.
# How the values were obtained:
# [1] = qHTS assay to identify small molecule agonists of the estrogen receptor beta (ER-beta) signaling pathway - cell viability counter screen (AID 1259380); conditions: ER-beta-bla HEK293T viability, CellTiter-Glo luminescence, 16 h; also: nearly all actives have a fitted effect of over 30% in size
# Procedure, shortened: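 Cell viability counter screen: CellTiter-Glo luminescence (30 min, room temperature) measured in the same wells as the beta-lactamase readout, after 16 hr compound exposure at 37C of ER-beta-bla HEK293T cells in 2% charcoal-stripped FBS medium.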
# [2] = qHTS assay to identify small molecule antagonists of the estrogen receptor beta (ER-beta) signaling pathway - cell viability counter screen (AID 1259382); conditions: ER-beta-UAS-bla HEK293T viability, CellTiter-Glo luminescence, 16 h;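 also: HEK293T cells carrying ER-beta-UAS-bla reporter stimulated with estradiol; nearly all actives have a fitted effect of over 55% in size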
# Procedure, shortened: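 Cytotoxicity was measured in the same wells by CellTiter-Glo luminescence after 30 min at room temperature. Cells were ER-beta-bla HEK293T in charcoal-stripped serum, given compound together with 1 nM E2 and incubated 16 h at 37C.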
# [3] = molecular target: Estrogen receptor (Homo sapiens) (UniProt P03372); test: qHTS assay to identify small molecule agonists of the estrogen receptor alpha (ER-alpha) signaling pathway in the presence of an antagonist (AID 1259383; calls by dose curve; also: top concentration of the series differs between compounds; nearly all actives have a fitted effect of over 15% in size); conditions: VM7Luc4E2 cells, ERE-luciferase, +ICI-182,780, 22 h; at 92.4 µM (top of the series) unless noted
# [4] = qHTS assay to identify small molecule agonists or antagonists of the thyroid stimulating hormone receptor (TSHR) signaling pathway - wild type cell line counter screen (AID 1259384; calls by dose curve); conditions: HEK293 wild type, cAMP HTRF counter-screen, hits give high values; at 92.4 µM (top of the series) unless noted
# Procedure, shortened: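 Wild-type Hek293 cells, 800/well, 18 h at 37C, then compound with Ro20-1724 for 30 min RT. cAMP by HTRF (cAMP-d2/anti-cAMP cryptate), 1 h RT, fluorescence read. 15 concentrations, triplicates.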
# [5] = molecular target: Thyrotropin receptor (Homo sapiens) (UniProt P16473); test: qHTS assay to identify small molecule antagonists of the thyroid stimulating hormone receptor (TSHR) signaling pathway (AID 1259385; calls by dose curve; also: nearly all actives have a fitted effect of over 20% in size); conditions: TSHR-HEK293 cAMP HTRF, TSH-stimulated antagonist mode; at 92.4 µM (top of the series) unless noted
# [6] = molecular target: Progesterone receptor (Homo sapiens) (UniProt P06401); test: qHTS assay to identify small molecule antagonists of the progesterone receptor (PR) signaling pathway (AID 1346795; active = well fitted inhibition curve with a large enough effect in the signal ratio in the repeat runs, not every such curve was filed as active; the % refers to the signal ratio)
# Procedure, shortened: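 PR-UAS-bla HEK293T cells with beta-lactamase reporter under UAS control, in 2% charcoal-stripped FBS, treated with compounds plus 1 nM promegestone (R5020, final) for 16 hr at 37C. Read-out: FRET beta-lactamase substrate fluorescence after 2 hr at room temperature.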
# [7] = qHTS assay to identify small molecule antagonists of the progesterone receptor (PR) signaling pathway - cell viability counter screen (AID 1346798); also: nearly all actives have a fitted effect of over 50% in size
# Procedure, shortened: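 PR-UAS-bla HEK293T cells, 3,000/well in 2% charcoal-stripped FBS medium, dosed with compounds plus R5020 agonist and incubated 16 h at 37C. Viability then measured in the same wells by CellTiter-Glo luminescence after 30 min at RT.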
# [8] = qHTS assay to identify small molecule agonists of the progesterone receptor (PR) signaling pathway - cell viability counter screen (AID 1346799; calls by dose curve; also: nearly all actives have a fitted effect of over 45% in size)
# Procedure, shortened: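 Counter screen in the PR-UAS-bla HEK293T wells (2% charcoal-stripped FBS, 16 h compound exposure at 37 C) after the bla read. CellTiter-Glo added, 30 min at room temperature, luminescence read as cell viability.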
# [9] = qHTS assay to identify small molecule agonists of the TGF-beta/Smad signaling pathway (AID 1346859; active = well fitted activation curve with a large enough effect in the signal ratio in the repeat runs, not every such curve was filed as active; the % refers to the signal ratio); conditions: SBE-bla HEK293T, TGF-beta/Smad beta-lactamase reporter, 5 h
# Procedure, shortened: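 SBE-bla HEK293T cells plated overnight, then compound exposure for 5 h at 37 C. Beta-lactamase reporter read with LiveBLAzer B/G FRET substrate after 2 h at room temperature, fluorescence at 405 nm excitation, 460/530 nm emission.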
# [10] = molecular target: Thyrotropin-releasing hormone receptor (Homo sapiens) (UniProt P34981); test: qHTS assay to identify small molecule antagonists of the thyrotropin-releasing hormone receptor (TRHR) signaling pathway (AID 1346877; active = well fitted inhibition curve with a large enough effect in the repeat runs, not every such curve was filed as active)
# [11] = molecular target: Thyrotropin-releasing hormone receptor (Homo sapiens) (UniProt P34981); test: qHTS assay to identify small molecule agonists of the thyrotropin-releasing hormone receptor (TRHR) signaling pathway (AID 1346891; calls by dose curve;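 also: HEK293 cells expressing TRHR with calcium dye readout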); conditions: TRHR-HEK293 calcium fluorescence, agonist mode
# [12] = Caspase-3/7 induction in HepG2 cells by small molecules, qHTS assay (AID 1346978); conditions: HepG2 caspase-3/7 activation, Caspase-Glo luminescence, 17 h; also: nearly all actives have a fitted effect of over 15% in size
# Procedure, shortened: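 Wild-type HepG2 cells, 2,000/well, settled 5 hr at 37 C and 5% CO2, then compound-treated for 17 hr; caspase-3/7 activity read by luminescent Caspase-Glo 3/7 after 30 min at room temperature.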
# [13] = Caspase-3/7 induction in HepG2 cells by small molecules, qHTS cell viability counter screen (AID 1346981); also: nearly all actives have a fitted effect of over 30% in size
# Procedure, shortened: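 CellTiter-Fluor fluorescence measured viability in the same wells used for Caspase-Glo 3/7. HepG2 (wild type) at 2,000 cells/well were pre-incubated 5 hr, dosed, and given reagent at 16 hr, with 1 hr further at 37C.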
# [14] = molecular target: Nuclear receptor subfamily 1 group I member 2 (Homo sapiens) (UniProt O75469); test: Human pregnane X receptor (PXR) small molecule agonists, qHTS assay (AID 1346982); also: nearly all actives have a fitted effect of over 35% in size
# Procedure, shortened: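 Agonist mode: luminescence from ONE-Glo after 24 h compound exposure at 37C in HepG2 cells carrying hPXR-responsive CYP3A4 luciferase, plated in charcoal-stripped serum medium 5 h beforehand.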
# [15] = molecular target: Acetylcholinesterase (Homo sapiens) (UniProt P22303); test: Acetylcholinesterase (AChE) small molecule antagonists: colormetric cell-based qHTS assay (AID 1347395; calls by dose curve; also: nearly all actives have a fitted effect of over 30% in size)
# Procedure, shortened: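 SH-SY5Y cells attached overnight, exposed to compound 30 min at 37 C, then given DTNB/acetylthiocholine; after 90 min at 37 C, colorimetric thiocholine read gives cellular AChE activity.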
# [16] = molecular target: Acetylcholinesterase (Homo sapiens) (UniProt P22303); test: Acetylcholinesterase (AChE) small molecule antagonists: enzyme-based qHTS assay (AID 1347397; calls by dose curve; also: nearly all actives have a fitted effect of over 55% in size); conditions: at 115 µM (top of the series) unless noted
# Procedure, shortened: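 Colorimetric DTNB read-out of thiocholine released from acetylthiocholine by recombinant human AChE (50 mU/mL as dispensed). Compounds were preincubated 30 min at RT before substrate/DTNB addition, with a 10 min RT reaction.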
# [17] = molecular target: Acetylcholinesterase (Homo sapiens) (UniProt P22303); test: Acetylcholinesterase (AChE) small molecule antagonists: enzyme-based qHTS assay with human liver microsomes (AID 1347399; calls by dose curve; also: nearly all actives have a fitted effect of over 60% in size); conditions: Potency: qHTS inhibition
# Procedure, shortened: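 Recombinant human AChE (50 mU/mL in the enzyme mix) and human liver microsomes (0.25 mg/mL final) were preincubated with compound and NADPH (0.25 mg/mL final) for 30 min at 37 C. Acetylthiocholine/DTNB was then added; thiocholine was read colorimetrically after 10 min at room temperature.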
# [18] = molecular target: Cytochrome P450 2D6 (Homo sapiens) (UniProt P10635); test: Cytochrome P450 Family 2 Subfamily D Member 6 (CYP2D6) small molecule antagonists: luciferase reporter qHTS assay (AID 1671196); also: nearly all actives have a fitted effect of over 50% in size; also: potency is read from the fitted curve at half-maximal effect
# Procedure, shortened: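 CYP2D6 activity was followed as luminescence from its luciferin product after a 1 h NADPH-driven reaction at room temperature. Enzyme-substrate mix and compound were pre-incubated for 10 min, and the signal was read 20 min after adding detection reagent.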
# [19] = molecular target: Androgen receptor (Homo sapiens) (UniProt P10275); test: qHTS assay to identify small molecule agonists of the androgen receptor (AR) signaling pathway in the presence of an antagonist (AID 1259381; calls by dose curve; also: nearly all actives have a fitted effect of over 15% in size); conditions: MDA-kb2 MMTV-luciferase, AR agonist + nilutamide, 16 h
# [20] = qHTS assay to identify small molecule agonists of the estrogen receptor alpha (ER-alpha) signaling pathway in the presence of an antagonist - cell viability counter screen (AID 1259386); also: nearly all actives have a fitted effect of over 30% in size
# Procedure, shortened: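 Compounds tested at 15 concentrations for 22 h at 37C alongside 10.0nM (final) ICI-182,780 antagonist, in VM7Luc4E2 cells grown in phenol red-free, charcoal-stripped medium. Viability read by CellTiter-Fluor fluorescence after 1 h reagent incubation.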
# [21] = at 92.4 µM (top of the series) unless noted
# [22] = at 76.8 µM (top of the series) unless noted
# [23] = at 57.6 µM (top of the series) unless noted
# % is scaled to controls: 0 for no effect and ±100 for the full control effect.
smiles,measurement,setting,value
CN(C(=O)Cc1cccc2occc12)[C@H]1CC[C@@]2(CCCO2)C[C@@H]1N1CCCC1,"activity change, negative = cytotoxicity",[1]; [21],inactive: 1.34%
same,"activity change, negative = cytotoxicity",[2]; [21],inactive: -6.2%
same,activation,[3],inactive: -1.53%
same,cAMP activity change,[4],inactive: 3.79%
same,"activity change, negative = inhibition",[5],inactive: 1.45%
same,Potency,[6],inactive
same,Potency,[7],inactive
same,Potency,[8],inactive
same,activation,[9]; [22],inactive: -0.0321%
same,Potency,[10],inactive
same,activation,[11]; [23],inactive: -0.144%
same,caspase activation,[12]; [21],inactive: 0.0367%
same,Potency,[13],inactive
same,Potency,[14],inactive
same,Potency,[15],inactive
same,"activity change, negative = inhibition",[16],inactive: -0.132%
same,Potency,[17],inactive
same,Potency,[18],active: 199 nM
NC(=O)Nc1ccc([As](=O)(O)O)cc1,"activity change, negative = cytotoxicity",[1]; at 42.5 µM (top of the series),inactive: 5.1%
same,"activity change, negative = cytotoxicity",[1]; at 92.4 µM (top of the series),inactive: 8.58%
same,activation,[19]; at 42.5 µM (top of the series),inactive: -0.18%
same,activation,[19]; at 92.4 µM (top of the series),inactive: -0.771%
same,"activity change, negative = cytotoxicity",[2]; at 42.5 µM (top of the series),inactive: 1.67%
same,"activity change, negative = cytotoxicity",[2]; at 92.4 µM (top of the series),inactive: -1.03%
same,Potency,[20],inactive
same,Potency,[6],inactive
same,Potency,[7],inactive
same,Potency,[8],inactive
same,activation,[9]; at 35.3 µM (top of the series),inactive: -0.215%
same,activation,[9]; at 76.8 µM (top of the series),inactive: 2.08%
same,Potency,[10],inactive
same,activation,[11]; at 26.5 µM (top of the series),inactive: -0.346%
same,activation,[11]; at 57.6 µM (top of the series),inactive: -0.0368%
same,caspase activation,[12]; at 42.5 µM (top of the series),inactive: 0.846%
same,caspase activation,[12]; at 92.4 µM (top of the series),inactive: -3.61%
same,Potency,[13],inactive
same,Potency,[14],inactive
CCNC(C)Cc1ccc2c(c1)OCO2 (stereo not drawn),"activity change, negative = cytotoxicity",[1]; [21],inactive: 3.51%
same,"activity change, negative = cytotoxicity",[2]; [21],inactive: -2.11%
same,activation,[3],inactive: -0.798%
same,cAMP activity change,[4],inactive: -0.146%
same,"activity change, negative = inhibition",[5],inactive: -0.0875%
same,Potency,[20],inactive
same,Potency,[6],inactive
same,activation,[9]; [22],inactive: -0.998%
same,Potency,[10],inactive
same,activation,[11]; [23],inactive: 1.14%
same,caspase activation,[12]; [21],inactive: -1.07%
same,Potency,[13],inactive
same,Potency,[14],inactive
same,Potency,[15],inactive
same,"activity change, negative = inhibition",[16],inactive: 4.18%
same,Potency,[17],inactive
same,Potency,[18],active: 215 nM
COP(=S)(Cl)OC,"activity change, negative = cytotoxicity",[1]; [21],inactive: 6.42%
same,"activity change, negative = cytotoxicity",[2]; [21],inactive: 3.86%
same,activation,[3],inactive: -1.64%
same,cAMP activity change,[4],inactive: 3.61%
same,"activity change, negative = inhibition",[5],inactive: 0.545%
same,Potency,[6],inactive
same,Potency,[7],inactive
same,Potency,[8],inactive
same,activation,[9]; [22],inactive: -2.2%
same,Potency,[10],inactive
same,activation,[11]; [23],inactive: -0.0705%
same,caspase activation,[12]; [21],inactive: 0.5%
same,Potency,[13],inactive
same,Potency,[14],inactive
same,Potency,[15],inactive
same,"activity change, negative = inhibition",[16],inactive: 1.21%
same,Potency,[17],inactive
O=[p+]1oc2ccccc2c2ccccc21 (stereo not drawn),"activity change, negative = cytotoxicity",[1]; [21],inactive: -5.73%
same,"activity change, negative = cytotoxicity",[2]; [21],inactive: 4.73%
same,activation,[3],inactive: 0.221%
same,cAMP activity change,[4],inactive: -8.57%
same,"activity change, negative = inhibition",[5],inactive: 0.195%
same,Potency,[20],inactive
same,Potency,[6],inactive
same,Potency,[7],inactive
same,Potency,[8],inactive
same,activation,[9]; [22],inactive: 0.0437%
same,Potency,[10],inactive
same,activation,[11]; [23],inactive: -0.111%
same,caspase activation,[12]; [21],inactive: -0.451%
same,Potency,[13],inactive
same,Potency,[14],inactive
same,Potency,[15],inactive
same,"activity change, negative = inhibition",[16],inactive: 0.129%
same,Potency,[17],inactive
O=P(Cl)(Oc1ccccc1)Oc1ccccc1,"activity change, negative = cytotoxicity",[1]; [21],inactive: 0.123%
same,"activity change, negative = cytotoxicity",[2]; [21],inactive: 0.998%
same,activation,[3],inactive: -2.48%
same,cAMP activity change,[4],inactive: 5.18%
same,"activity change, negative = inhibition",[5],inactive: 1.23%
same,Potency,[20],inactive
same,Potency,[6],inactive
same,Potency,[7],inactive
same,Potency,[8],inactive
same,activation,[9]; [22],inactive: -0.0815%
same,Potency,[10],inactive
same,activation,[11]; [23],inactive: -0.407%
same,caspase activation,[12]; [21],inactive: -0.102%
same,Potency,[13],inactive
same,Potency,[14],inactive
same,Potency,[15],inactive
same,"activity change, negative = inhibition",[16],inactive: 2.72%
same,Potency,[17],inactive
same,Potency,[18],inactive
